According to patent US6936585B2, “Corticotropin releasing factor 2 receptor agonists” (priority 2002, dated 2005):

How the values were obtained:
[1] = target: T1, CRF2R (Homo sapiens, UniProt Q13324); test: CRF2R agonist activation (EC50 / Emax), called comparative CRF binding; type: cell-based; conditions: for Emax: read-out: CRF2R Emax
T1 sequence (Q13324 1-411): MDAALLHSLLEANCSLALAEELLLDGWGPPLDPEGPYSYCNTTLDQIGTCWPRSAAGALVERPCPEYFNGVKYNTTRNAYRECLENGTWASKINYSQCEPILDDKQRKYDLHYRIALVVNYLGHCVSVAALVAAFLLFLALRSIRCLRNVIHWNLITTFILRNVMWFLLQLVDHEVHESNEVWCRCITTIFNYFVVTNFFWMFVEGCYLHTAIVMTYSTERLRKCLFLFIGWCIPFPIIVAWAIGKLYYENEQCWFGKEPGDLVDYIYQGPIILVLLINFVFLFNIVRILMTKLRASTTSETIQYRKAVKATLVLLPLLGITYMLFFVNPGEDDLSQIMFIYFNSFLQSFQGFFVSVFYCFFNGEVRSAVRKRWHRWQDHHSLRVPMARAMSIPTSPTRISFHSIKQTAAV
How it was run: (§1)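 Peptides are tested on cells bearing CRF1R or CRF2R, full length or as ligand-binding-domain constructs coupled to reporters or G proteins. Activation is scored by cAMP rise, measured in lysates or by CRE-reporter output, against vehicle control.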

[2] = target: T2, CRF1R (Homo sapiens, UniProt P34998); test: CRF1R agonist activation (EC50 / Emax), called comparative CRF binding; type: cell-based; conditions: for Emax: read-out: CRF1R Emax
T2 sequence (P34998 24-415): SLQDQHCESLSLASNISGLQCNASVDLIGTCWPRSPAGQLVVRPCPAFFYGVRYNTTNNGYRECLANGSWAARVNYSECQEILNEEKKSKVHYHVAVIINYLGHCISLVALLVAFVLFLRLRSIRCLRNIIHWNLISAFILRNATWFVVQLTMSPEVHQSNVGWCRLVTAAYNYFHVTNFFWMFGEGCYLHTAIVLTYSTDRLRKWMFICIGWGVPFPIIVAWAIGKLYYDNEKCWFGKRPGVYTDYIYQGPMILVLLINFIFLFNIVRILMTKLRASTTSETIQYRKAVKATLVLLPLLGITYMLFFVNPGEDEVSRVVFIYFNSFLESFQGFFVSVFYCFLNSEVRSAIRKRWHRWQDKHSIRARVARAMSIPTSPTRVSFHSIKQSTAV
How it was run: as §1

Question: How did the Emax [1] turn out when CC[C@H](C)[C@H](NC(=O)[C@@H](NC(=O)[C@H](CC(=O)O)NC(=O)[C@H](CC(C)C)NC(=O)[C@H](CC(C)C)NC(=O)[C@H](CC(C)C)NC(=O)[C@H](CCCNC(=N)N)NC(=O)[C@H](CC(N)=O)NC(=O)[C@H](CC(N)=O)NC(=O)[C@H](C)NC(=O)[C@H](C)NC(=O)[C@H](CCC(N)=O)NC(=O)[C@H](CCC(N)=O)NC(=O)[C@H](CCCCN)NC(=O)[C@H](CCC(=O)O)NC(=O)[C@H](CCCCN)NC(=O)[C@H](CCC(=O)O)NC(=O)[C@H](CCC(N)=O)NC(=O)[C@H](CCCCN)NC(=O)[C@H](CCC(=O)O)NC(=O)[C@@H](NC(=O)[C@H](CCC(=O)O)NC(=O)[C@@H](NC(=O)[C@H](CCSC)NC(=O)[C@H](CCCCN)NC(=O)[C@H](CCCNC(=N)N)NC(=O)[C@H](CC(C)C)NC(=O)[C@H](CC(C)C)NC(=O)[C@H](Cc1ccccc1)NC(=O)[C@H](Cc1ccc(O)cc1)NC(=O)[C@@H]1CCCN1C(=O)[C@H](CC(C)C)NC(=O)[C@H](CC(=O)O)NC(=O)[C@@H](NC(=O)[C@H](CO)NC(=O)[C@@H](NC(=O)[C@@H]1CCCN1C(=O)[C@@H]1CCCN1C(=O)CNC(=O)[C@@H]1CCC(=O)N1)[C@@H](C)CC)[C@@H](C)CC)[C@@H](C)CC)[C@@H](C)CC)[C@@H](C)O)C(N)=O [compound 220] was run?
Answer: 98%

Question: What about the Emax [2] of the same molecule?
Answer: 81%

Question: Which EC50 [1] does the source give for CC[C@H](C)[C@H](NC(=O)[C@@H](NC(=O)[C@H](CC(=O)O)NC(=O)[C@H](CC(C)C)NC(=O)[C@H](CC(C)C)NC(=O)[C@H](CC(C)C)NC(=O)[C@H](C)NC(=O)[C@H](CC(N)=O)NC(=O)[C@H](CC(N)=O)NC(=O)[C@H](C)NC(=O)[C@H](C)NC(=O)[C@H](CCC(N)=O)NC(=O)[C@H](CCC(N)=O)NC(=O)[C@H](CCCCN)NC(=O)[C@H](CCC(=O)O)NC(=O)[C@H](CCCCN)NC(=O)[C@H](CCC(=O)O)NC(=O)[C@H](CCC(N)=O)NC(=O)[C@H](CCCCN)NC(=O)[C@H](CCC(=O)O)NC(=O)[C@@H](NC(=O)[C@H](CCC(=O)O)NC(=O)[C@@H](NC(=O)[C@H](CCSC)NC(=O)[C@H](CCCCN)NC(=O)[C@H](CCCNC(=N)N)NC(=O)[C@H](CC(C)C)NC(=O)[C@H](CC(C)C)NC(=O)[C@H](Cc1ccc(O)cc1)NC(=O)[C@H](Cc1ccc(O)cc1)NC(=O)[C@@H]1CCCN1C(=O)[C@H](CC(C)C)NC(=O)[C@H](CC(=O)O)NC(=O)[C@@H](NC(=O)[C@H](CO)NC(=O)[C@@H](NC(=O)[C@@H]1CCCN1C(=O)[C@@H]1CCCN1C(=O)CNC(=O)[C@@H]1CCC(=O)N1)[C@@H](C)CC)[C@@H](C)CC)[C@@H](C)CC)[C@@H](C)CC)[C@@H](C)O)C(N)=O [compound 226] here?
Answer: 7.6 nM

Question: What about the Emax [1] of the same molecule?
Answer: 100%

Question: What about the EC50 ([2]; CRF1R EC50) of the same molecule?
Answer: 315 nM

Question: What about the Emax [2] of the same molecule?
Answer: 95%

Question: What does the source list for CC[C@H](C)[C@H](N)C(=O)N[C@H](C(=O)N[C@@H](CC(C)C)C(=O)N[C@@H](CO)C(=O)N[C@@H](CC(C)C)C(=O)N[C@@H](CC(=O)O)C(=O)N[C@H](C(=O)N1CCC[C@H]1C(=O)N[C@H](C(=O)NCC(=O)N[C@@H](CC(C)C)C(=O)N[C@@H](CC(C)C)C(=O)N[C@@H](CCC(N)=O)C(=O)N[C@H](C(=O)N[C@@H](CC(C)C)C(=O)N[C@@H](CC(C)C)C(=O)N[C@@H](CCC(=O)O)C(=O)N[C@@H](CCC(N)=O)C(=O)N[C@@H](C)C(=O)N[C@@H](CCCNC(=N)N)C(=O)N[C@@H](C)C(=O)N[C@@H](CCCNC(=N)N)C(=O)N[C@@H](C)C(=O)N[C@@H](C)C(=O)N[C@@H](CCCNC(=N)N)C(=O)N[C@@H](CCC(=O)O)C(=O)N[C@@H](CCC(N)=O)C(=O)N[C@@H](C)C(=O)N[C@H](C(=O)N[C@H](C(=O)N[C@@H](CC(N)=O)C(=O)N[C@@H](C)C(=O)N[C@@H](CCCNC(=N)N)C(=O)N[C@H](C(=O)N[C@@H](CC(C)C)C(=O)N[C@@H](C)C(=O)N[C@@H](CCCNC(=N)N)C(=O)N[C@H](C(N)=O)C(C)C)[C@@H](C)CC)[C@@H](C)O)[C@@H](C)O)[C@@H](C)CC)[C@@H](C)CC)C(C)C)C(C)C [compound 354]?
Answer: Emax [1]: 100%; Emax [2]: 13.4%
